These results are taken from US20260240847A1, “COMPOUNDS WITH ANTI-TUMOR ACTIVITY AGAINST CANCER CELLS BEARING TYROSINE KINASE INHIBITOR RESISTANT EGFR MUTATIONS” (BOARD OF REGENTS, THE UNIVERSITY OF TEXAS SYSTEM, priority 2019, published 2026).

Sequences of proteins named here, by UniProt entry; tags and fusion partners are left off. Residues count along the entry.
UniProt P00533, 25-1210 E709K: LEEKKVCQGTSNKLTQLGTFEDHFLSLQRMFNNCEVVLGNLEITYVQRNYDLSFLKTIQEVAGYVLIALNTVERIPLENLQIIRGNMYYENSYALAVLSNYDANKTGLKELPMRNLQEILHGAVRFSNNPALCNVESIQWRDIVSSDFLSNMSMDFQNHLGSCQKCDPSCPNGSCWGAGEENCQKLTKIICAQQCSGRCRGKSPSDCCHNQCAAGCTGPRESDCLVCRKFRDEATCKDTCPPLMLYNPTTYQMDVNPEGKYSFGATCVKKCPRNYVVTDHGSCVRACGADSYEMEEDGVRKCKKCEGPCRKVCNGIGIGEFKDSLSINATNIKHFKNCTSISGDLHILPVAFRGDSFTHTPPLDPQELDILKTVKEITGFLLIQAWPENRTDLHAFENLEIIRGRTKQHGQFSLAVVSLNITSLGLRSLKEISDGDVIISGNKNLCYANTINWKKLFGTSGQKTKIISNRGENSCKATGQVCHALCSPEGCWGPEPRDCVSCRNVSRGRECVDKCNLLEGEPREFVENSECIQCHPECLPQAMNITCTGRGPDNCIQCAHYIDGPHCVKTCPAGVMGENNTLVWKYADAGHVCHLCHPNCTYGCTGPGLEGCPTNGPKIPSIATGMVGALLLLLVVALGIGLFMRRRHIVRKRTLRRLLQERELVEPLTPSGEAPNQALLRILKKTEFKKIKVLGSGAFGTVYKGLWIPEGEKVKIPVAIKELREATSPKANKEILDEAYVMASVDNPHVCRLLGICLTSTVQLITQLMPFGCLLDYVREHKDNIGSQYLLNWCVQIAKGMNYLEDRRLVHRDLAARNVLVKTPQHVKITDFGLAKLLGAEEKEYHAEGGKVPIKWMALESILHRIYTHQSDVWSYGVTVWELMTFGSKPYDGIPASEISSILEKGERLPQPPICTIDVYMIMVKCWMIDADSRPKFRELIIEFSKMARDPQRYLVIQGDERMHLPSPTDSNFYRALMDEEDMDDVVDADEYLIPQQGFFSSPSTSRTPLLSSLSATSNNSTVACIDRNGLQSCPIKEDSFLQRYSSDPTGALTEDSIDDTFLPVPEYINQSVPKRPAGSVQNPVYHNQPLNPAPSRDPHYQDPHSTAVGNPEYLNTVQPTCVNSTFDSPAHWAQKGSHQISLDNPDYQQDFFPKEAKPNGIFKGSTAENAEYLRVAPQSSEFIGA
UniProt P00533, 25-1210 L718Q: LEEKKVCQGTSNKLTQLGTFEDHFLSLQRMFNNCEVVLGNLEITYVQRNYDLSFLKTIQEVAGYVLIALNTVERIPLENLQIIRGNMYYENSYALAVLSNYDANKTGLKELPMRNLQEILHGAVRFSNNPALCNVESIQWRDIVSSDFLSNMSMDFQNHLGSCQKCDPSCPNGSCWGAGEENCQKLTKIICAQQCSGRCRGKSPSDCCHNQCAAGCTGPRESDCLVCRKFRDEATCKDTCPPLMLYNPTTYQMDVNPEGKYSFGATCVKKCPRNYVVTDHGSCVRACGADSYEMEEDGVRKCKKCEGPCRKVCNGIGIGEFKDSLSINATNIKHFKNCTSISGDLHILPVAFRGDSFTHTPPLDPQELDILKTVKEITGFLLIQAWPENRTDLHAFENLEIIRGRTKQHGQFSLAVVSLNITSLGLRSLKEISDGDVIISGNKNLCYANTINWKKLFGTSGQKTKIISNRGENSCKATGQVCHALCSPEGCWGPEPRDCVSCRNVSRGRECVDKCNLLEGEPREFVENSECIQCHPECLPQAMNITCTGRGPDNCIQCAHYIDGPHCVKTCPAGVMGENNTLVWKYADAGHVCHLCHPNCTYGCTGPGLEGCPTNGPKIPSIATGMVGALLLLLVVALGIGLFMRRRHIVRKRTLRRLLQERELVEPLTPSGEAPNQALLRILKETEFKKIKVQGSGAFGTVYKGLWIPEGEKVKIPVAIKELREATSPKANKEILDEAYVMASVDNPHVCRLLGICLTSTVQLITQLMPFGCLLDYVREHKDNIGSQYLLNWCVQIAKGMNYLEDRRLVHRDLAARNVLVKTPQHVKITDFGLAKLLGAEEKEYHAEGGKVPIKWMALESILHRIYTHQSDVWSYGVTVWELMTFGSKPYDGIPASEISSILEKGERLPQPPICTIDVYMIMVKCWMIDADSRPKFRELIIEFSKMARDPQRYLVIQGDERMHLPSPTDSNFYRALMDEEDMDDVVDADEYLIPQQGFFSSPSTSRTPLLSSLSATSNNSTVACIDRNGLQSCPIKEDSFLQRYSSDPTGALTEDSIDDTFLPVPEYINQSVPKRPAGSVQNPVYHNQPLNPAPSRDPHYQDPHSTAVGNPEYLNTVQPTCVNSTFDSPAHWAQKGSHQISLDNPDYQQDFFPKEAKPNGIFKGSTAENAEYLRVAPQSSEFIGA
UniProt P00533, 25-1210 L718V: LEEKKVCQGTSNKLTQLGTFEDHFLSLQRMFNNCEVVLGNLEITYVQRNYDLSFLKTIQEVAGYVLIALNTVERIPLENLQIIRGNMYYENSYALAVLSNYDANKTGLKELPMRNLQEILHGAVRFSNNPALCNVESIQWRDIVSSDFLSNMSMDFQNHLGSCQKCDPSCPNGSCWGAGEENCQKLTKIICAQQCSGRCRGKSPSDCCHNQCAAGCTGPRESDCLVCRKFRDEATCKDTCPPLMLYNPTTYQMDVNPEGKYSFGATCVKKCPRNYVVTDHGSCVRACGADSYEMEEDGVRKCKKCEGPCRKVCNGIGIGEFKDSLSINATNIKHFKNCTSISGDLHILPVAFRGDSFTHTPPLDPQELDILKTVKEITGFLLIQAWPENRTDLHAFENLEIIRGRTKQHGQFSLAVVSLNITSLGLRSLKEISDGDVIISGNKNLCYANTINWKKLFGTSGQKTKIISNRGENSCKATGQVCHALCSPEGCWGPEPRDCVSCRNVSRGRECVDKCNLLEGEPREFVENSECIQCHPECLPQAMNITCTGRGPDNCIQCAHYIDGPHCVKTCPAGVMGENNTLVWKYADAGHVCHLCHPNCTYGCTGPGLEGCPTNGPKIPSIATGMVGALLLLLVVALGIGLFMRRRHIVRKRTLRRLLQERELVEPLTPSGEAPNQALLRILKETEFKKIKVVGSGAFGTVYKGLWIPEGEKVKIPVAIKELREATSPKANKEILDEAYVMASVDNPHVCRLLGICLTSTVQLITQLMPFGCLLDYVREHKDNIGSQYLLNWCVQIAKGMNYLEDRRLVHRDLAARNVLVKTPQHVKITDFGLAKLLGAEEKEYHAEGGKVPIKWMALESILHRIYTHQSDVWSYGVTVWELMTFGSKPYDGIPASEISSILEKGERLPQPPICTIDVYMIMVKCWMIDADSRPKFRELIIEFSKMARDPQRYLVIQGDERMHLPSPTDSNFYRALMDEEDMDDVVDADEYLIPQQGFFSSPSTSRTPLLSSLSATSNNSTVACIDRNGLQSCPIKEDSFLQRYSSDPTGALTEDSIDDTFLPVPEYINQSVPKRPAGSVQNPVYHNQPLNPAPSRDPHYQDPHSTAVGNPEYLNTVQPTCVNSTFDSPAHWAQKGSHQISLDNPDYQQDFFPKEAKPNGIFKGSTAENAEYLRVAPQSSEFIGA
UniProt P00533, 25-1210 G719A/R776C: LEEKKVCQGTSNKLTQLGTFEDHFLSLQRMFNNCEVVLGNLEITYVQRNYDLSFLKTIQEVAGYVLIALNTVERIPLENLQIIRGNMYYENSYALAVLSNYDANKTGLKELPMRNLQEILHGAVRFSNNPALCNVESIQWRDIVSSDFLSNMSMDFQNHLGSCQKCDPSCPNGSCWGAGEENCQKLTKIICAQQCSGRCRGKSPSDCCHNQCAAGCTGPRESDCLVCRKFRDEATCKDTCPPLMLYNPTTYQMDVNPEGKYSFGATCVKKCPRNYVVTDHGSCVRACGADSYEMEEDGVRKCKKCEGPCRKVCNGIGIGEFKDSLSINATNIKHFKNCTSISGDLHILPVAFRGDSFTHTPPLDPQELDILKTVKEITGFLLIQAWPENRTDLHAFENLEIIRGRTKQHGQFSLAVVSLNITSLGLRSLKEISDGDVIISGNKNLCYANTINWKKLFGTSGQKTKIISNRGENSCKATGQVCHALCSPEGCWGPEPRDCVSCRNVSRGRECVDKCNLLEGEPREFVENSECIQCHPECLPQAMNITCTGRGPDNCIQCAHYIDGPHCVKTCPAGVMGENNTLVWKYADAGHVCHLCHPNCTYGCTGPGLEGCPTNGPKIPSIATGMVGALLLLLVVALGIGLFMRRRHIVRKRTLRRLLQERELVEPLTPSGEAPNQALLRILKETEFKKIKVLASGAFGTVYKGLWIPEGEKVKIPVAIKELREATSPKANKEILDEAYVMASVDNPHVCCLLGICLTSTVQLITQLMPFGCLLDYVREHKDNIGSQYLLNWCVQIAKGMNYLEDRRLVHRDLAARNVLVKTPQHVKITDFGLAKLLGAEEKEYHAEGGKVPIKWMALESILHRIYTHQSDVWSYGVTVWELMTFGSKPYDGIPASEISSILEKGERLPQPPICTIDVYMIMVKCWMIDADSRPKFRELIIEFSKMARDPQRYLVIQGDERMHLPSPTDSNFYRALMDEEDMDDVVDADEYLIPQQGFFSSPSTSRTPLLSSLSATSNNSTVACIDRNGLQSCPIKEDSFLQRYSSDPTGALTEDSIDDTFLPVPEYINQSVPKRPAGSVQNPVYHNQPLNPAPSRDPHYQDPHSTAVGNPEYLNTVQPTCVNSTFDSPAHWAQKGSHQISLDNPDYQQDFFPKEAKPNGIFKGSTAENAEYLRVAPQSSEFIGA
UniProt P00533, 25-1210 G719A/L861Q: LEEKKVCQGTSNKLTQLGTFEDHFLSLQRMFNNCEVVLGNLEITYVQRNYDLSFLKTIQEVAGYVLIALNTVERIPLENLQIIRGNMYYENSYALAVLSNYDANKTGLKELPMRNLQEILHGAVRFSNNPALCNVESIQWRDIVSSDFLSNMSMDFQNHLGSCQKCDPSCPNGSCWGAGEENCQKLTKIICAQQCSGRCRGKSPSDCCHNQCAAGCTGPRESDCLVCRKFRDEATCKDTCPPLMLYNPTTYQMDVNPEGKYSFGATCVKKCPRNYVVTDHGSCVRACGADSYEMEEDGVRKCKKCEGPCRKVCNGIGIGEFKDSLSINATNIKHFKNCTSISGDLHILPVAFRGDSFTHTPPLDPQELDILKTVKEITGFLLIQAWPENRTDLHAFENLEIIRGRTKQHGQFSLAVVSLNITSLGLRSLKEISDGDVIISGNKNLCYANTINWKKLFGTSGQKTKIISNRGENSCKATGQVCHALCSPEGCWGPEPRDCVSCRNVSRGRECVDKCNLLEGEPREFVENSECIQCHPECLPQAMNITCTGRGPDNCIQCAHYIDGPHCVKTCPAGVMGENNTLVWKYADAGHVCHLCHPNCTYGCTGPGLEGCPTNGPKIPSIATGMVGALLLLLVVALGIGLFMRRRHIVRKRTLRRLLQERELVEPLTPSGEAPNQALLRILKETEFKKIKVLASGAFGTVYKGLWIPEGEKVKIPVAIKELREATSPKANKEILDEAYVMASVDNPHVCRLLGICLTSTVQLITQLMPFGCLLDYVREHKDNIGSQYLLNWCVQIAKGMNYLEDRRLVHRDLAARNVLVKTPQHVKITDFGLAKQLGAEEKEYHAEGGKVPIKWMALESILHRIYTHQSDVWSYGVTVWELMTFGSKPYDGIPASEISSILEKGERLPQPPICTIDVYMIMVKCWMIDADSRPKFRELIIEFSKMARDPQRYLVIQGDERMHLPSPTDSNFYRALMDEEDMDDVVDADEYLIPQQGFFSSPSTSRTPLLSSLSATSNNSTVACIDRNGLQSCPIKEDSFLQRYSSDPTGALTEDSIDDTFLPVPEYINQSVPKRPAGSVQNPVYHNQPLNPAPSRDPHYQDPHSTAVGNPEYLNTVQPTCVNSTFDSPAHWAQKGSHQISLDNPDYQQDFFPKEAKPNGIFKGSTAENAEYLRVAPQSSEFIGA

Experiment in all cases: Ba/F3 cell viability, Cell Titer Glo
(In general: ATP-based viability assays read luminescence as a measure of living cells.)

Experiment [1] concerns the target EGFR E709K (Homo sapiens, UniProt P00533, E709K). The settings on record: read-out: IC50 Values; Ba/F3 cells expressing EGFR E709K, 72 hours.
Experiment [2] addresses EGFR L718Q (Homo sapiens, UniProt P00533, L718Q). Conditions: read-out: IC50 Values; Ba/F3 cells expressing EGFR L718Q, 72 hours.
Experiment [3] addresses EGFR L718V (Homo sapiens, UniProt P00533, L718V). The settings on record: read-out: IC50 Values; Ba/F3 cells expressing EGFR L718V, 72 hours.
The target of experiment [4] is EGFR G719A/R776C (Homo sapiens, UniProt P00533, G719A/R776C). The settings on record: read-out: IC50 Values; Ba/F3 cells expressing EGFR G719A/R776C, 72 hours.
Experiment [5] deals with EGFR G719A L861Q (Homo sapiens, UniProt P00533, G719A/L861Q). Conditions: read-out: IC50 Values; Ba/F3 cells expressing EGFR G719A L861Q, 72 hours.
For experiment [6], the target named is EGFR A767insASV (Homo sapiens, UniProt P00533, DUP767-769). The settings on record: read-out: IC50 Values; Ba/F3 cells expressing EGFR A767insASV, 72 hours.
Experiment [7] addresses EGFR D770insNPG (Homo sapiens, UniProt P00533, INS770NPG). The settings on record: read-out: IC50 Values; Ba/F3 cells expressing EGFR D770insNPG, 72 hours.
Experiment [8] deals with EGFR H773insNPH (Homo sapiens, UniProt P00533, INS773NPH). The settings on record: read-out: IC50 Values; Ba/F3 cells expressing EGFR H773insNPH, 72 hours.
For experiment [9], the target named is EGFR L833F (Homo sapiens, UniProt P00533, L833F). The settings on record: read-out: IC50 Values; Ba/F3 cells expressing EGFR L833F, 72 hours.
Experiment [10] concerns the target EGFR L861Q (Homo sapiens, UniProt P00533, L861Q). Conditions: read-out: IC50 Values; Ba/F3 cells expressing EGFR L861Q, 72 hours.
The target of experiment [11] is EGFR Ex19del/L792H (Homo sapiens, UniProt P00533, DEL746-750/L792H). The settings on record: read-out: IC50 Values; Ba/F3 cells expressing EGFR Ex19del/L792H, 72 hours.
Experiment [12] addresses EGFR L858R/C797S (Homo sapiens, UniProt P00533, C797S/L858R). The settings on record: read-out: IC50 Values; Ba/F3 cells expressing EGFR L858R/C797S, 72 hours.
Experiment [13] concerns the target EGFR L858R G796S (Homo sapiens, UniProt P00533, G796S/L858R). The settings on record: read-out: IC50 Values; Ba/F3 cells expressing EGFR L858R G796S, 72 hours.
The target of experiment [14] is EGFR L858R L718Q (Homo sapiens, UniProt P00533, L718Q/L858R). Conditions: read-out: IC50 Values; Ba/F3 cells expressing EGFR L858R L718Q, 72 hours.
For experiment [15], the target named is EGFR Ex19del G796S (Homo sapiens, UniProt P00533, DEL746-750/G796S). The settings on record: read-out: IC50 Values; Ba/F3 cells expressing EGFR Ex19del G796S, 72 hours.
The target in experiment [16] is EGFR L858R/L718V (Homo sapiens, UniProt P00533, L718V/L858R). The settings on record: read-out: IC50 Values; Ba/F3 cells expressing EGFR L858R/L718V, 72 hours.
For experiment [17], the target named is EGFR Ex19del L718Q (Homo sapiens, UniProt P00533, DEL746-750/L718Q). Conditions: read-out: IC50 Values; Ba/F3 cells expressing EGFR Ex19del L718Q, 72 hours.
For experiment [18], the target named is EGFR L858R T790M L792H (Homo sapiens, UniProt P00533, L792H/L858R/T790M). Conditions: read-out: IC50 Values; Ba/F3 cells expressing EGFR L858R T790M L792H, 72 hours.
Experiment [19] has as its target EGFR Ex19del T790M C797S (Homo sapiens, UniProt P00533, C797S/DEL746-750/T790M). The settings on record: read-out: IC50 Values; Ba/F3 cells expressing EGFR Ex19del T790M C797S, 72 hours.
The target of experiment [20] is EGFR L718Q T790M (Homo sapiens, UniProt P00533, L718Q/T790M). The settings on record: read-out: IC50 Values; Ba/F3 cells expressing EGFR L718Q T790M, 72 hours.

In general, IC50 refers to the concentration that gives 50% inhibition.

Consider `Cc1cc(C(=O)Nc2nc3cccc(Cl)c3n2[C@@H]2CCCCN(C(=O)/C=C/CN(C)C)C2)ccn1`, for which the 50% inhibitory concentration (IC50) in experiment [1] stood at 388 nM; in experiment [2], 1610 nM; in experiment [3], 1020 nM; in experiment [4], 56.5 nM; in experiment [5] it was 68.9 nM; in experiment [6] it was 828 nM. In addition, the 50% inhibitory concentration (IC50) in [7] was 686 nM; in experiment [8] it was 550 nM; in experiment [9], 253 nM; in experiment [10], 83.4 nM; in [11], 56.7 nM; in [12], 4.49 µM. In addition, the half-inhibitory concentration (IC50) in [13] turned out to be 856 nM; in experiment [14], 808 nM; in experiment [15] it was 210 nM; in experiment [16] it was 335 nM; in [17], 72 nM; in experiment [18] it was 5.57 µM. The IC50 amounted to 7.21 µM in experiment [19] and 411 nM in experiment [20].
